{
  "source": "paper PMC7822861",
  "about": "“A functional family of fluorescent nucleotide analogues to investigate actin dynamics and energetics” (Nature Communications, 2021)",
  "key": {"[1]": {"biological_target": "KU560-labeled S. cerevisiae profilin (Pfy1p) S36C/C89A (S. cerevisiae) (UniProt P07274)", "assay": "fluorescence polarisation; steady-state fluorescence anisotropy of KU560 (excitation 555 nm, emission 650 nm); 0.5 µM KU560-profilin or 2 µM KU560-ADF/cofilin titrated with increasing concentrations of G-actin bound to ATP (control pre-incubated with ATP); G-buffer, room temperature"}, "[2]": {"biological_target": "KU560-labeled S. cerevisiae profilin (Pfy1p) S36C/C89A (S. cerevisiae) (UniProt P07274)", "assay": "fluorescence polarisation; steady-state fluorescence anisotropy of KU560 (excitation 555 nm, emission 650 nm); 0.5 µM KU560-profilin or 2 µM KU560-ADF/cofilin titrated with increasing concentrations of G-actin pre-incubated 150 min with a 5-fold excess of ATP-ATTO-488 (88% occupancy); G-buffer, room temperature"}},
  "note": "pKd: −log10 of the molar value.",
  "data": [
    {"substance": "Rabbit muscle actin (from UniProt P68135 1-377) (natural protein)", "values": [
      {"measurement": "pKd", "setting": "[1]", "value": 5.68},
      {"measurement": "pKd", "setting": "[2]", "value": 5.59}
    ]}
  ]
}
